{"source": "patent US11473045B2", "about": "“Device for in-vitro modelling in-vivo tissues of organs” (priority 2013, dated 2022)", "tested_on": "Lung bronchial epithelial cells (16HBEo-)", "description": "FIG. 14 illustrates the effects of a physiologic (10% linear), cyclic mechanical strain on the permeability of an epithelial barrier. Lung bronchial epithelial cells (16HBEo-) were seeded at a density of 250'000 cells/cm^2 onto the fibronectin-coated culturing membrane. The cells were allowed to adhere and to grow for 72 h. The cells were exposed to cyclic strain (10% linear, 0.2 Hz) for 19 h, whereas the control was kept at static conditions. […] After 2 h of incubation, the permeability of each molecule was measured with a fluorescence multiplate reader (Tecan Infinite M1000; Ex:460/Em:515 & Ex:553/Em:627)."}
{"substance": "RITC-Dextran", "values": [{"measurement": "transmembrane permeability of stretched cells compared to control cells in static conditions", "value": "no significant permeability differences"}]}
